Measurements published in patent US12435061B2 (priority 2020, dated 2025).
pIC50: −log10 of the molar value.

Chains of the proteins cited; added tags and fusions are not shown. Lines headed by an entry give the natural chain unless they say otherwise; changes in a name come on top.
UniProt Q8NET8: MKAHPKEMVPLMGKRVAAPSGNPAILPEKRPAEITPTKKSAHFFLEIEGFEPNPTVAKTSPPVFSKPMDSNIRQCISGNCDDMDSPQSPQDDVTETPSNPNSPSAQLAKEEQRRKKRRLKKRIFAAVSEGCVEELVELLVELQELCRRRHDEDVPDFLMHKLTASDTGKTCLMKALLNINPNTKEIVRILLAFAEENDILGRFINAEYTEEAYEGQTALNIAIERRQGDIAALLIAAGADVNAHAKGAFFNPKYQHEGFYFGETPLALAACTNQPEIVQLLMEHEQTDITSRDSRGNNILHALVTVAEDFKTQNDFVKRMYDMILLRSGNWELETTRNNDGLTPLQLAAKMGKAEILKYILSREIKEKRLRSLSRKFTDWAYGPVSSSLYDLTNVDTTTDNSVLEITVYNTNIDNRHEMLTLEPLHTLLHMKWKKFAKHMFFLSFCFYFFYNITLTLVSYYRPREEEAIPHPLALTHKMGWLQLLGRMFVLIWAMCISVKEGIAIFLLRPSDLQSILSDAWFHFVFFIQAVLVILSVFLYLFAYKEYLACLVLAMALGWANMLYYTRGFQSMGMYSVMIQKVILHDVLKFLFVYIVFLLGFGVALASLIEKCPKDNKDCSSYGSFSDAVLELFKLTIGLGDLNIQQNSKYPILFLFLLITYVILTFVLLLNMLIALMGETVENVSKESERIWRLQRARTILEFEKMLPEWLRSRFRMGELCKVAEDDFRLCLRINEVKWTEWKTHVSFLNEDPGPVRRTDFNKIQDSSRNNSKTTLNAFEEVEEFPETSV

Key:
hTRPV3 [1] = target: T1, hTRPV3 (Homo sapiens (Human), UniProt Q8NET8); assay: Semi-auto patch clamp recording in nHEK cells (WT or TRPV3-mu transfected); format: cell-based
Procedure: Compounds were tested at room temperature using the whole-cell patch clamp technique with a HEKA EPC 10 usb patch-clamp amplifier (HEKA Elektronik, Germany). Output signals from the amplifier were digitized and recorded with PatchMaster (v2x90.5 HEKA Elektronik, Germany). For quality control, the minimum seal resistance was set at 100 MΩ, and the outward current was stabilized with at least 1 nA of rectifying current at +80 mV while the inward current was stabilized with at least 300 pA of rectifying current at −80 mV.
NPC-1 Chips (Nanion, Germany) were used to trap a single cell. For both WT or transfected cells, chips of the categories 2-3 MOhm and 3-5 MOhm were used. Chips are disposable and each recording required a new chip. […]
For WT nHEK cells, the “intermediate protocol” in the semi-automatic Port-a-Patch device software was selected based on the parameters: initial sealing, measured by resistance, and its ability to maintain sealing along with assay.
The procedure was started with the “Startup procedure” protocol that validates chip contact and adjusts offset, then after the system was ready, 5 μl of cells suspended in extracellular buffer was added and the intermediate protocol was automatically launched. […]
The sensitivity of reading was adjusted by changing the gain from 2.0 to 0.5. […]

hTRPV3 [2] = target: T1, hTRPV3; assay: Whole-cell patch clamp, hTRPV3 Phase 1 / Phase 2 currents; format: cell-based; conditions: Phase 1 current, inward, read-out: hTRPV3 Patch P1 Inwd
From the text: Whole-cell patch clamp experiments permit the detection of currents through the TRPV3 channel in the cell line described above. A glass electrode is brought into contact with a single cell and the membrane is then ruptured, permitting control of the voltage of the cell membrane and measurement of currents flowing across the membrane using the amplifier attached to the electrode. A perfusion system permits control of the extracellular solution, including the addition of blockers and activators of the current. The current can be activated by heating this solution to 28° C. or warmer or by addition of 20 μM 2-APB to the solution.
TRPV3 cells were induced 20-48 hours, removed from growth plates, and replated at low density (to attain good single-cell physical separation) on glass coverslips for measurement. In some cases, cells were grown in low density overnight on glass coverslips. Patch clamp recordings were made in the whole-cell mode with a holding potential of −40 mV. Every 5 seconds, a voltage ramp was applied from −120 to +100 mV, 400 ms in duration. Currents elicited were quantified at −80 mV and +80 mV. […] External solution was Ringer's solution described above.
P1 refers to the Phase 1 current for human (h) TRPV3, and P2 refers to the Phase 2 current for human (h) TRPV3. […]

SMILES | pIC50 (hTRPV3 [1]) | pIC50 (hTRPV3 [2])
O=C(c1ccc(F)cn1)N1CC[C@H](c2ccc(-c3ccccc3C3CC3)cc2CO)C1 (stereo in doubt) [KM-001-E1, [3-(2′-Cyclopropyl-3-hydroxymethyl-biphenyl-4-yl)-pyrrolidin-1-yl]-(5-fluoro-pyridin-2-yl)-methanone] | > 8.00 | –
O=C(c1ccc(F)cn1)N1CCC(c2ccc(-c3ccccc3C3CC3)cc2CO)C1 (centres unmarked) [Compound 2-72, (3-(2′-cyclopropyl-3-(hydroxymethyl)biphenyl-4-yl)pyrrolidin-1-yl)(5-fluoropyridin-2-yl)methanone] | – | > 8.00
